Ab-14 heavy chain CDR variants: yeast mating affinities

Values reported by Li et al. 2023, doi:10.1038/s41467-023-39022-2 (FLAb copy).

The target is the same throughout: PDVDLGDISGINAS, from the HR2 region of SARS-CoV-2 spike.

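Phage display of a naive human antibody library on the peptide gave the parent. The variants were designed computationally from a first round of random CDR variants and then made and measured. Their group label is 14H_En_Gibbs (En: ensemble of fine-tuned language models; Gibbs: Gibbs sampling). Affinity was read by AlphaSeq, a pooled yeast mating assay with surface-displayed partners. Pairs that bind mate more often; barcode pairs of the diploids are counted by sequencing. Each replicate has its own calibration line, from reference interactions of the BCL2 family. Mating was done six times.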

Ab-14 is the parent antibody, in scFv form: VH, then a 15-residue (Gly4Ser)3 linker, then VL. The light chain is unchanged in all variants.
VH: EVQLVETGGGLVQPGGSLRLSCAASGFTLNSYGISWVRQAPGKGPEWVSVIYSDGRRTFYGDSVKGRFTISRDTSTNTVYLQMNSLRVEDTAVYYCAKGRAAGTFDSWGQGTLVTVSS
VL: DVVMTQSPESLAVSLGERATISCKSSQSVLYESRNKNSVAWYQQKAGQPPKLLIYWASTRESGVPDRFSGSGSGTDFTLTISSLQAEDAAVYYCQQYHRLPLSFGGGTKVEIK

The whole VH of each variant is written out.
Values are log10 of the apparent Kd in nM; lower means stronger binding.
Averages over replicates are reported, and they cover detected replicates only.
A pair that was not seen in that replicate is written "ND"; this usually means weak binding, but a binder can also be missed.
Nonspecific signal, from three strains lacking the peptide, appeared in 1% of pairings of all heavy chain designs, centred on 2.08 (5% of these signals below 0.84); values are not corrected for it. For each scFv, signals with the empty controls are counted beside the result, with their mean in brackets.
Values of this round are not directly comparable with the first-round values of the same sequences.
The parent sequence was in this pool as ten entries: three were never detected, three once, and four in most replicates, with averages from 0.34 to 2.37.
The authors averaged sequences with at least three values out of six and counted those with two or fewer as poor binders.

| # | VH | log10 Kd, replicates | log10 Kd (nM), mean | empty controls |
|---|---|---|---|---|
| 1 | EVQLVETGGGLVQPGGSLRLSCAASGFDLNEYGVSWVRQAPGKGPEWVSVIYADGQRTYYTESVKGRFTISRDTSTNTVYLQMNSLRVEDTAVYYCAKGKFWDQLMAWGQGTLVTVSS | ND / ND / ND / ND / ND / ND | ND | 0/18 |
| 2 | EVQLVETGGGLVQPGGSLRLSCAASGFKLDEQGISWVRQAPGKGPEWVSVIYADGRRVGYTDSVKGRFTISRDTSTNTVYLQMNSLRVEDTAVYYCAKGTNGSDFTLWGQGTLVTVSS | ND / ND / ND / ND / ND / ND | ND | 0/18 |
| 3 | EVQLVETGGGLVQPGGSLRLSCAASGYALTEYGISWVRQAPGKGPEWVSVIYADGRRTAYSQSVKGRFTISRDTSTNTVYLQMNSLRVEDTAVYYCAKGLNGGIIVVWGQGTLVTVSS | ND / ND / ND / ND / ND / ND | ND | 1/18 (2.21) |
| 4 | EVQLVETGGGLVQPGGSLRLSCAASGFDIEEYGISWVRQAPGKGPEWVSVIYADGIRANYDQKVKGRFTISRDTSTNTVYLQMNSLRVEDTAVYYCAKGTIAGTFVDWGQGTLVTVSS | 2.13 / 0.81 / 1.66 / 1.07 / 2.43 / 1.44 | 1.59 | 0/18 |
| 5 | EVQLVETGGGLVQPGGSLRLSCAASGFELDEYGISWVRQAPGKGPEWVSVIYADGHRRAYADDVKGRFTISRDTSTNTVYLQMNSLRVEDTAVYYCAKGMHSGSVQHWGQGTLVTVSS | ND / ND / ND / ND / ND / ND | ND | 0/18 |
| 6 | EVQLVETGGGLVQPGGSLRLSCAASGFDLEEYGISWVRQAPGKGPEWVSVIYADGMRQYAQDNVKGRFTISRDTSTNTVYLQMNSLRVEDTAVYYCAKGLISGKGKTWGQGTLVTVSS | ND / ND / ND / ND / ND / ND | ND | 0/18 |
| 7 | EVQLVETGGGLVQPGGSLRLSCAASGDVLDEYGISWVRQAPGKGPEWVSVIYADGRRTFYVQDVKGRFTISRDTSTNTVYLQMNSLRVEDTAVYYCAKGGKAGSLSVWGQGTLVTVSS | ND / ND / ND / ND / ND / ND | ND | 0/18 |
| 8 | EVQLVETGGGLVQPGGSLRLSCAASGYDIQEYGISWVRQAPGKGPEWVSVIYADGVRVAYHDSVKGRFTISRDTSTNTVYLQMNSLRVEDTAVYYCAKGQTAGIFLLWGQGTLVTVSS | ND / ND / ND / ND / ND / ND | ND | 1/18 (0.28) |
| 9 | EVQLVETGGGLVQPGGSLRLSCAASEFDLNEYGISWVRQAPGKGPEWVSVIYADGKRTFYADHVKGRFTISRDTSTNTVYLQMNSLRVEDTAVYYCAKGTNAGVFDTWGQGTLVTVSS | ND / ND / ND / ND / ND / ND | ND | 0/18 |
| 10 | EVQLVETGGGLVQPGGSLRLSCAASGFPIDEYGISWVRQAPGKGPEWVSVIYADGRRTVYSDNVKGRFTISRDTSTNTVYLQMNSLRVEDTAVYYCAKGNYMASGKIWGQGTLVTVSS | ND / ND / ND / ND / ND / ND | ND | 0/18 |
| 11 | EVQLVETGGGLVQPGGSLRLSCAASGDDLEEYGISWVRQAPGKGPEWVSVIYADGMRTYYEDSVKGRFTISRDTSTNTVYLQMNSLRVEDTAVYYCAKGNVNGTFFDWGQGTLVTVSS | ND / ND / ND / 3.26 / ND / ND | 3.26 | 1/18 (3.24) |
| 12 | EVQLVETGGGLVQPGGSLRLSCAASGFEIDEYGISWVRQAPGKGPEWVSVIYADGIRSSYNDNVKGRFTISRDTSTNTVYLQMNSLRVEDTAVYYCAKGQTGGAFDLWGQGTLVTVSS | ND / ND / ND / ND / ND / ND | ND | 0/18 |
| 13 | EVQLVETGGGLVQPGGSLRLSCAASGFDLDEYGVSWVRQAPGKGPEWVSVIYADGMRMAYQNDVKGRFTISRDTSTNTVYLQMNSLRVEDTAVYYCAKGQKGNVFFMWGQGTLVTVSS | ND / ND / ND / ND / ND / ND | ND | 0/18 |
| 14 | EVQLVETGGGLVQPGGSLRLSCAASGEDLQEYGISWVRQAPGKGPEWVSVIYADGFRQSYSDKVKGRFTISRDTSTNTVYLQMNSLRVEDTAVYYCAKGQHAGFLVKWGQGTLVTVSS | 1.29 / 1.31 / 0.32 / ND / ND / 2.62 | 1.38 | 0/18 |
| 15 | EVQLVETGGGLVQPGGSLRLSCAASGFNIDEYGISWVRQAPGKGPEWVSVIYADGQRLSYDDNVKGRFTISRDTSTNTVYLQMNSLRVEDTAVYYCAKGGITGTFTNWGQGTLVTVSS | ND / ND / ND / ND / ND / ND | ND | 0/18 |
| 16 | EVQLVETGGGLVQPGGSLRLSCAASGFEIQEFGISWVRQAPGKGPEWVSVIYADGMRTNYSENVKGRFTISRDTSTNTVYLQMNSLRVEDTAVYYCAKGTLAGTFTTWGQGTLVTVSS | ND / 2.47 / 1.33 / 0.67 / 1.52 / ND | 1.50 | 0/18 |
| 17 | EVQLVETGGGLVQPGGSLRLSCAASGFDLDQYGISWVRQAPGKGPEWVSVIYADGMRSVYADDVKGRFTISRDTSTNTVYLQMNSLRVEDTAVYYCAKGHEGGIFLVWGQGTLVTVSS | ND / ND / ND / ND / ND / ND | ND | 0/18 |
| 18 | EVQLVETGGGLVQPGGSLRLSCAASGFELDEYGISWVRQAPGKGPEWVSVIYADGVRTQYKQSFKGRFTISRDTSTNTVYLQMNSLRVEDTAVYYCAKGGIFGYIAGWGQGTLVTVSS | ND / ND / ND / ND / ND / ND | ND | 0/18 |
| 19 | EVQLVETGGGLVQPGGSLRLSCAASGFNLDEFGISWVRQAPGKGPEWVSVIYADGIRTFYLDSFKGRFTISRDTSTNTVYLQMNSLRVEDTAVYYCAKGENVNAVDTWGQGTLVTVSS | ND / ND / ND / ND / ND / ND | ND | 0/18 |
| 20 | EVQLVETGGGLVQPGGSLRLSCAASGFDVDEQGISWVRQAPGKGPEWVSVIYADGRRSQYANSVKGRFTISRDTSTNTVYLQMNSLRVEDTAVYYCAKGAIGGTFDMWGQGTLVTVSS | ND / ND / ND / 2.01 / 2.63 / ND | 2.32 | 1/18 (1.66) |
| 21 | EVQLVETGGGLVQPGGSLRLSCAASGFDIEEYGVSWVRQAPGKGPEWVSVIYADGNRSQYSDNVKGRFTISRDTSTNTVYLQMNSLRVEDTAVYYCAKGIIGDNVVIWGQGTLVTVSS | ND / ND / ND / 2.36 / 1.95 / 2.40 | 2.24 | 0/18 |

Excerpt, the final 3 entries:

| VH | log10 Kd, replicates | log10 Kd (nM), mean | empty controls |
|---|---|---|---|
| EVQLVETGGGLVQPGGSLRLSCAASGFNLDEFGISWVRQAPGKGPEWVSVIYADGIRTFYLDSFKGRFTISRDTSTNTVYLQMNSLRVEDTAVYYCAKGENVNAVDTWGQGTLVTVSS | ND / ND / ND / ND / ND / ND | ND | 0/18 |
| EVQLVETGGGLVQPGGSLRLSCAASGFDVDEQGISWVRQAPGKGPEWVSVIYADGRRSQYANSVKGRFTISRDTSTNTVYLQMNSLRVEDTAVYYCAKGAIGGTFDMWGQGTLVTVSS | ND / ND / ND / 2.01 / 2.63 / ND | 2.32 | 1/18 (1.66) |
| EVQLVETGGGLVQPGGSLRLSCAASGFDIEEYGVSWVRQAPGKGPEWVSVIYADGNRSQYSDNVKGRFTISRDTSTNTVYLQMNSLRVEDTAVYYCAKGIIGDNVVIWGQGTLVTVSS | ND / ND / ND / 2.36 / 1.95 / 2.40 | 2.24 | 0/18 |